Experimental findings from patent publication US9127005B2, “Isoform selective phospholipase D inhibitors” (Vanderbilt University, priority 2009, dated 2015) are described below.

Protein sequences, listed by entry. Tags and fused reporters are not part of them. Lines headed by an entry give the natural chain unless they say otherwise; changes in a name come on top.
UniProt O14939: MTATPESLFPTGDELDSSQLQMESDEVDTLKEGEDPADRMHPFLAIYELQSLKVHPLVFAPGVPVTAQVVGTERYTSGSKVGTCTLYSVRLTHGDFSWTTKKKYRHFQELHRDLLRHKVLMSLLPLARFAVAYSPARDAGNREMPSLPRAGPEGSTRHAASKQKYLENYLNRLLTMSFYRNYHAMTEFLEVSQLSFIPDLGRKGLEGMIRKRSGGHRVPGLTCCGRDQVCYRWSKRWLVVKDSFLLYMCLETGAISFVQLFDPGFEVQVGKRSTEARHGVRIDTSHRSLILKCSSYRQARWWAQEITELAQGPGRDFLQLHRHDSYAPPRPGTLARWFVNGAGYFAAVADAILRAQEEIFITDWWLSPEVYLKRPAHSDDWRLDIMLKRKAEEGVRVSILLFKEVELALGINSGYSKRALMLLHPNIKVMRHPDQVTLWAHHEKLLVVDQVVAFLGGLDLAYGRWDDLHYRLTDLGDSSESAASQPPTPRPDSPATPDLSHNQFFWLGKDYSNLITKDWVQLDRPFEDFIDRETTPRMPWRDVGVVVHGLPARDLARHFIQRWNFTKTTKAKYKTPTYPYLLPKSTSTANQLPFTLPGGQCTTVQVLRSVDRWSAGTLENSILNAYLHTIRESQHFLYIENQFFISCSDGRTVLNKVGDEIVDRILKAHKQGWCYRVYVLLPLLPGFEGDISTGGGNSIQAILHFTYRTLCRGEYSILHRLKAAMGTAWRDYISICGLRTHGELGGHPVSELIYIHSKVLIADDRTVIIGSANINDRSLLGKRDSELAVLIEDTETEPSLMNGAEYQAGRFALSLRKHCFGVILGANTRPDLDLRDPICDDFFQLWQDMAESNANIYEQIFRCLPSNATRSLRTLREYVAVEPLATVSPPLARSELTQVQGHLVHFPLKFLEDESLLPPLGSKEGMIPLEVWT
UniProt Q13393: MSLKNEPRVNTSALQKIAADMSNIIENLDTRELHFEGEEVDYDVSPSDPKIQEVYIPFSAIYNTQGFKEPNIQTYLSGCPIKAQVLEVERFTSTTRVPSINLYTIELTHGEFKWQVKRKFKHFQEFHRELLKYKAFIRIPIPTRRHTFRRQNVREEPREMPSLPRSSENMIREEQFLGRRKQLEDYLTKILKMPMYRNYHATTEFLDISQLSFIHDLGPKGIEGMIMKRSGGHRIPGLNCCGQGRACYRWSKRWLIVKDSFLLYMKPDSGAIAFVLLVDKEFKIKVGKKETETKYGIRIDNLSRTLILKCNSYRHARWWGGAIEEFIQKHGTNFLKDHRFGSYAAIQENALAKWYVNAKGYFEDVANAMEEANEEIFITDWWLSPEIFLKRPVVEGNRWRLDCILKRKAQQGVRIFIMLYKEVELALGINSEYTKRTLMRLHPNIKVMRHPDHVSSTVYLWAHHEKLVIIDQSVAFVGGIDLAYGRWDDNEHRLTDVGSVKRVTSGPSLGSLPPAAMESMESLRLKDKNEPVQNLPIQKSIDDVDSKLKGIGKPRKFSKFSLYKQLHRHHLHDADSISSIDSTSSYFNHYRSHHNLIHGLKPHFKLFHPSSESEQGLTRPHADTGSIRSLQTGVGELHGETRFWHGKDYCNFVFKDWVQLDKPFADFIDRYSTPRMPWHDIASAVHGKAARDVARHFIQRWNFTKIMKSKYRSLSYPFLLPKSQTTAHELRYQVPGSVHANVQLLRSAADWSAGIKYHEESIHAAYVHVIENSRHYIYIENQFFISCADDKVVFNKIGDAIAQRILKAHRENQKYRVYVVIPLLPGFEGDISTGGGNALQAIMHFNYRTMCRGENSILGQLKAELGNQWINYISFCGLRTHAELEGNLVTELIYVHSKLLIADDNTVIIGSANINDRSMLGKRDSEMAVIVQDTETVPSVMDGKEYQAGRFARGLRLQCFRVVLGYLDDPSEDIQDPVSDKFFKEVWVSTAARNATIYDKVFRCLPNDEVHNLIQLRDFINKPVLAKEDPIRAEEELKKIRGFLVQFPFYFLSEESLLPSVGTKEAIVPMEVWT

The target of test [1] is T1, PLD2 (Homo sapiens (Human), UniProt O14939). In words: Cellular CRCs: PLD2 response in HEK293gfpPLD2 (293-PLD2) cells. The format is cell-based. An excerpt: (§1) The screening method can comprise providing a cell selectively expressing a PLD isoenzyme, comprising a phosholipid, contacting the cell with a candidate agent in the presence of a primary alcohol, measuring the levels of phosphatidylalcohol in the cell, comparing the phosphatidylalcohol levels to a control, a decrease in phosphatidylalcohol levels compared to the control identifying an agent that inhibits the PLD isoenzyme.
In some aspects PLD activity in the cell is mediated predominately by PLD2. Thus, in some aspects, the cell stably overexpresses recombinant PLD2. For example, the cell can be a HEK293 cell stably overexpressing green florescent protein (GFP)-tagged PLD2.

Test [2] has as its target T2, PLD1 (Homo sapiens (Human), UniProt Q13393). In words: Cellular CRCs: PLD1 response in Calu-1 cells. In kind it is cell-based.
From the text: as §1
In some aspects PLD activity in the cell is mediated predominately by PLD1. Thus, in some aspects, the cell is the human non-small-cell lung cancer (NSCLC) cell line Calu-1. In some aspects, the cell has been stimulated to activate PLD1 in the cell. For example, the cell can be stimulated with phorbol 12-myristate 13-acetate (PMA).

For test [3], the target named is T1, PLD2. As to the kind of experiment: Exogenous CRCs: in vitro PLD2 response. In kind it is biochemical. An excerpt: (§2) The screening method can comprise providing a sample comprising a phosholipid and a PLD under conditions that allow the hydrolysis of the phospholipids to a phosphatidic acid, contacting the sample with a candidate agent, measuring enzymatic activity, comparing the enzymatic activity to a control, a decrease in enzymatic activity compared to the control identifying an agent that inhibits the PLD.
(§3) In some aspects, the PLD is a myr-Aff-1-stimulated mammalian human PLD1 or human PLD2.

Test [4] concerns the target T2, PLD1. As to the kind of experiment: Exogenous CRCs: in vitro PLD1 response. The format is biochemical.
From the text: Generally, the screening method can comprise providing a sample comprising a phosholipid, a primary alcohol, and a PLD under conditions that allow the hydrolysis of the phospholipids to a phosphatidylalcohol, contacting the sample with a candidate agent, measuring enzymatic activity, comparing the enzymatic activity to a control, a decrease in enzymatic activity compared to the control identifying an agent that inhibits the PLD.
as §2, §3

Setting [5] is: exogenous (in vitro) PLD2, read-out: Exogenous CRCs PLD2 IC50.
Setting [6] is: Calu-1 cells (PLD1), read-out: Cellular CRCs Calu-1 IC50.

For orientation: IC50 means the concentration that gives 50% inhibition. For the molecule `C[C@@H](CN1CCC2(CC1)C(=O)NC[C@H]2c1ccc(F)cc1)NC(=O)c1cnc2ccccc2c1` [P2E, N-((S)-1-((S)-4-(4-fluorophenyl)-1-oxo-2,8-diazaspiro[4.5]decan-8-yl)propan-2-yl)quinoline-3-carboxamide bis(2,2,2-trifluoroacetate)], the IC50 in test [1] came out at 0.7 µM; in test [2] it was 0.2 µM; in test [3] (setting [5]) it was 6.75 µM.

Consider `O=C(NCCN1CCC2(CC1)C(=O)NC[C@@H]2c1ccc(F)cc1)c1cnc2ccccc2c1` [P1P, (R)-N-(2-(4-(4-fluorophenyl)-1-oxo 2,8-diazaspiro[4.5]decan-8-yl)ethyl)quinoline-3-carboxamide bis(2,2,2-trifluoroacetate)], for which the half-maximal inhibitory concentration (IC50) was 0.06 µM in test [1], over 20 µM in test [4] and 1.35 µM in test [2].

As to `O=C(NCCN1CCC2(CC1)C(=O)NC[C@@H]2c1ccc(F)cc1)c1ccc(F)cc1.O=C(O)C(F)(F)F` [NFW, (R)-4-fluoro-N-(2-(4-(4-fluorophenyl)-1-oxo-2,8-diazaspiro[4.5]decan-8-yl)ethyl)benzamide 2,2,2-trifluoroacetate], the results for the IC50 in test [1], in test [4] and in test [2] were 0.22 µM, 11 µM and 5.5 µM, respectively.

Consider `O=C(NCCN1CCC2(CC1)C(=O)NC[C@H]2c1ccc(F)cc1)c1ccc(F)cc1.O=C(O)C(F)(F)F` [P2C, (S)-4-fluoro-N-(2-(4-(4-fluorophenyl)-1-oxo-2,8-diazaspiro[4.5]decan-8-yl)ethyl)benzamide 2,2,2-trifluoroacetate], for which the IC50 is 3.17 µM in test [1], over 20 µM in test [4], over 20 µM in test [2] (setting [6]) and over 20 µM in test [3] (setting [5]). Moreover, the “Fold Selective” value in test [1] (cellular CRCs, selectivity for PLD2 (293-PLD2) over PLD1 (Calu-1)) is listed as ~10-fold?.

`C[C@@H](CN1CCC2(CC1)C(=O)NC[C@@H]2c1ccc(F)cc1)NC(=O)c1cnc2ccccc2c1` [P0L, N-((S)-1-((R)-4-(4-fluorophenyl)-1-oxo 2,8-diazaspiro[4.5]decan-8-yl)propan-2-yl)quinoline-3-carboxamide bis(2,2,2-trifluoroacetate)]: the IC50 in test [1] is 0.115 µM; in test [4] it was 0.1 µM; in test [2], 0.025 µM; in test [3], 0.725 µM.

On to `O=C(NCCN1CCC2(CC1)C(O)=NC[C@H]2c1ccc(F)cc1)c1cnc2ccccc2c1` [NFT, (S)-N-(2-(4-(4-fluorophenyl)-1-oxo-2,8-diazaspiro[4.5]decan-8-yl)ethyl)quinoline-3-carboxamide bis(2,2,2-trifluoroacetate)], for which the half-maximal inhibitory concentration (IC50) in test [1] was 0.45 µM; in test [4] it was over 20 µM; in test [2], 12 µM.

Consider `O=C(NCCN1CCC2(CC1)C(=O)NCC2c1ccc(F)cc1)c1cnc2ccccc2c1` (racemic) [CTH], for which the 50% inhibitory concentration (IC50) in test [1] (HEK293 cells overexpressing GFP-tagged PLD2, read-out: Cellular CRCs 293-PLD2 IC50) came to 0.145 µM; in test [2] (setting [6]), 2.4 µM; in test [3] it was 0.45 µM.
